# Measurements: ChEMBL document CHEMBL4321785, “Challenges and Opportunities for Therapeutics Targeting the Voltage-Gated Sodium Channel Isoform NaV1.7” (J Med Chem, 2019)
# Columns and labels:
# Type in all cases: cell-based
# Homo sapiens [1] = species on record: Homo sapiens; assay: Selectivity index, ratio of IC50 for inhibition of human Nav1.1 expressed in HEK293 cells by electrophysiology assay to IC50 for inhibition of human Nav1.7 expressed in HEK293 cells by electrophysiology assay
# Homo sapiens [2] = species on record: Homo sapiens; assay: Selectivity index, ratio of IC50 for inhibition of human Nav1.2 expressed in HEK293 cells by electrophysiology assay to IC50 for inhibition of human Nav1.7 expressed in HEK293 cells by electrophysiology assay
# Homo sapiens [3] = species on record: Homo sapiens; assay: Selectivity index, ratio of IC50 for inhibition of human Nav1.3 expressed in HEK293 cells by electrophysiology assay to IC50 for inhibition of human Nav1.7 expressed in HEK293 cells by electrophysiology assay
# Homo sapiens [4] = species on record: Homo sapiens; assay: Selectivity index, ratio of IC50 for inhibition of human Nav1.4 expressed in HEK293 cells by electrophysiology assay to IC50 for inhibition of human Nav1.7 expressed in HEK293 cells by electrophysiology assay
# Homo sapiens [5] = species on record: Homo sapiens; assay: Selectivity index, ratio of IC50 for inhibition of human Nav1.5 expressed in HEK293 cells by electrophysiology assay to IC50 for inhibition of human Nav1.7 expressed in HEK293 cells by electrophysiology assay
# Homo sapiens [6] = species on record: Homo sapiens; assay: Selectivity index, ratio of IC50 for inhibition of human Nav1.6 expressed in HEK293 cells by electrophysiology assay to IC50 for inhibition of human Nav1.7 expressed in HEK293 cells by electrophysiology assay
# Homo sapiens [7] = species on record: Homo sapiens; assay: Selectivity index, ratio of IC50 for inhibition of human Nav1.8 expressed in HEK293 cells by electrophysiology assay to IC50 for inhibition of human Nav1.7 expressed in HEK293 cells by electrophysiology assay
smiles,measurement,setting,value
NC(=O)[C@@H]1CC[C@H](c2ccc(OCc3ccccc3F)cc2)N1,Ratio IC50,Homo sapiens [1],< 1
same,Ratio IC50,Homo sapiens [2],< 1
same,Ratio IC50,Homo sapiens [3],< 1
same,Ratio IC50,Homo sapiens [4],< 1
same,Ratio IC50,Homo sapiens [5],2.5
same,Ratio IC50,Homo sapiens [6],< 1
same,Ratio IC50,Homo sapiens [7],< 1
